The test concerns the target human renin (Homo sapiens, UniProt P00797). Kind of test: Determination of Renin IC50 by tGFP FRET Assay. The note with it: Human recombinant renin, tandem GFP substrate 650 nM, renin and compound incubated 60 minutes before substrate, pH 7.4, tested form: HCl.

The chains behind the UniProt entries cited, without tags or fusion partners. Residues count along the entry.
UniProt P00797, 67-406 limits assumed: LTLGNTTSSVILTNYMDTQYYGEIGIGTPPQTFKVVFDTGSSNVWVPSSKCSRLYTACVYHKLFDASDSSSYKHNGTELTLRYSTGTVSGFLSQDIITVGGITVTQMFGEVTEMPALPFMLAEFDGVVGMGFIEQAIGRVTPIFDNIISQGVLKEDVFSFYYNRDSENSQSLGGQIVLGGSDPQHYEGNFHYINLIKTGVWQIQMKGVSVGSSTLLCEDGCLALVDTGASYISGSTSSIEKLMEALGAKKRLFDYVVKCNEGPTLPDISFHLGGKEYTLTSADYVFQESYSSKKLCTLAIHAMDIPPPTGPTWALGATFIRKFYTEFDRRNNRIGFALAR

`Fc1ccccc1COCCCOc1ccc([C@@H]2CCNC[C@@H]2NCc2ccc3cccnc3c2)cc1` (relative stereo): the IC50 worked out at 0.4 µM.

The term IC50 denotes the concentration that gives 50% inhibition.
